Results from US20030109503A1, “Pharmaceutical formulations comprising clavulanic acid alone or in combination with other beta-lactam antibiotics” (SmithKline Beecham p.l.c., priority 1995, published 2003).

Conditions: lungs of rats treated with amoxycillin alone or with clavulanate

CC1(C)S[C@@H]2[C@H](NC(=O)[C@H](N)c3ccc(O)cc3)C(=O)N2[C@H]1C(=O)O [Amoxycillin, amoxycillin]
loss of active amoxycillin in the site of infection: no loss of active amoxycillin was detected
